Assay results taken from PubChem BioAssay (EPA / NIEHS).
The list shows a part of the results, in another mix than the full data. The source made the active and inactive calls. Rule for the calls, unless noted: active = hit-call score of the fitted dose curve at least 0.9, where 1 is the maximum; inactive = score below 0.9.

Sequences of proteins named here, by UniProt entry; tags and fusion partners are left off.
UniProt P33261, whole entry: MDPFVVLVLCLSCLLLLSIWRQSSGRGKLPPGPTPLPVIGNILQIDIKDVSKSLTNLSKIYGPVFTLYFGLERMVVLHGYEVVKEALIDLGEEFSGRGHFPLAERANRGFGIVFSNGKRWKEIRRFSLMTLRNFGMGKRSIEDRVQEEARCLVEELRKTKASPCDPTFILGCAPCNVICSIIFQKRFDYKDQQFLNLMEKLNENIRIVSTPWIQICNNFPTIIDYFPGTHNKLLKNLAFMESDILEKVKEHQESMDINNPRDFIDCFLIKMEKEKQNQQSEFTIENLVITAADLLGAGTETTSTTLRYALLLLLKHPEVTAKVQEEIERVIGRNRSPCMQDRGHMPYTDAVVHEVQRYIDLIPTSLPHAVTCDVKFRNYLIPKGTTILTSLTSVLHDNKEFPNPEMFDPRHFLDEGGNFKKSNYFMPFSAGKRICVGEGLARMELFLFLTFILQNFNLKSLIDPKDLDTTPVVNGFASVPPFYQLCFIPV
UniProt P19838, whole entry: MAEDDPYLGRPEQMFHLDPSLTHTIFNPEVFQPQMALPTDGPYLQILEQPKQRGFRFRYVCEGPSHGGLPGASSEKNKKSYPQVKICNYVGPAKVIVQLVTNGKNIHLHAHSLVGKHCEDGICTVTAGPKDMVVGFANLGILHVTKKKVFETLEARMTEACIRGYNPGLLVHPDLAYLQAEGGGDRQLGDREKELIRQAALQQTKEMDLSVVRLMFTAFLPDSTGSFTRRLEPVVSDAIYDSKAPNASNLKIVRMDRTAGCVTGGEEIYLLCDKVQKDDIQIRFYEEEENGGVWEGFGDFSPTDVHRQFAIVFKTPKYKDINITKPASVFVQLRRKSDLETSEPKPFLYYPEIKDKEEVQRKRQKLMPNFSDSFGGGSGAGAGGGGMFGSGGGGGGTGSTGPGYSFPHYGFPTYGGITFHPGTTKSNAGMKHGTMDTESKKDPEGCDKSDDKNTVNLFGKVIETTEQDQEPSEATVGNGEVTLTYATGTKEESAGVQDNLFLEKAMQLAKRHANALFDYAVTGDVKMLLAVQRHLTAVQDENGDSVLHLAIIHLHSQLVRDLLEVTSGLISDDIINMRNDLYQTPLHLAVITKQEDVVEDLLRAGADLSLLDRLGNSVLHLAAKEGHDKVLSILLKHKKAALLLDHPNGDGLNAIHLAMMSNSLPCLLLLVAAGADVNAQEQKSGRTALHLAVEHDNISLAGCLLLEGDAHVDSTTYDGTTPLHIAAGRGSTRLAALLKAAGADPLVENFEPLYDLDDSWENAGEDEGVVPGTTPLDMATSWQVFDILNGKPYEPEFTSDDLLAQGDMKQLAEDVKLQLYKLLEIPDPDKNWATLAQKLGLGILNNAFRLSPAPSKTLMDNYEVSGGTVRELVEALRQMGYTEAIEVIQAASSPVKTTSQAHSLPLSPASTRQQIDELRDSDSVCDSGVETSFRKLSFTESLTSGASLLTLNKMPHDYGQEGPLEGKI
UniProt Q16236, whole entry: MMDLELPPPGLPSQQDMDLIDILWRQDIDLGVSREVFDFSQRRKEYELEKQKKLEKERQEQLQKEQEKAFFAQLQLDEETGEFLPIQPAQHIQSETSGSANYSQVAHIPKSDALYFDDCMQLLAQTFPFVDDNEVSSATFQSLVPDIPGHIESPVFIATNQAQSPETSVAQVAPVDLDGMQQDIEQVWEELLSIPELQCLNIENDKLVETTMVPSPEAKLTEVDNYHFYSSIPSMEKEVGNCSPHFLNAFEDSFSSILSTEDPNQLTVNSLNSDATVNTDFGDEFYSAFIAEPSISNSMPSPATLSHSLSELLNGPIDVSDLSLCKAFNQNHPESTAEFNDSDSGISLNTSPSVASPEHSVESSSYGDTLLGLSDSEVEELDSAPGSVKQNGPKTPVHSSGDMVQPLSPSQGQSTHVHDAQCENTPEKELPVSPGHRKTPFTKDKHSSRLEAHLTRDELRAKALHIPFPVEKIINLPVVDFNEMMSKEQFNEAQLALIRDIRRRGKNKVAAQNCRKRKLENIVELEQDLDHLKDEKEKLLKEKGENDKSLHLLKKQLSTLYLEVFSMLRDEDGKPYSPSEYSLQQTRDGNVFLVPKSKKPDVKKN

How the values were obtained:
[1] = read-out: Cytochrome P450 2C19 (Homo sapiens) (UniProt P33261); assay: LTEA_HepaRG_CYP2C19: Life Technologies and Expression Analysis (LTEA) Assay for CYP2C19 using HepaRG (AID 2283482); conditions: actives raise or lower the signal; mRNA level, 48 h
In short: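 Transcript levels of CYP2C19 were quantified by qRT-PCR after HepaRG cells were treated for 48 hours with test chemicals up to 100 uM (eight half-log concentrations, 0.5% DMSO vehicle). Gain or loss of signal was fitted relative to DMSO.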

CYP2E1 (gene 1571) = assay: LTEA_HepaRG_CYP2E1: Life Technologies and Expression Analysis (LTEA) Assay for CYP2E1 using HepaRG (AID 2283485); conditions: actives raise or lower the signal; mRNA level, 48 h
In short: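 HepaRG cells in serum-free induction medium exposed 48 h to test chemicals, 8 half-log concentrations up to 100 uM in 0.5% DMSO, duplicate. CYP2E1 mRNA by qRT-PCR, normalized to ACTB, GAPDH, POLR2A; bidirectional fit versus DMSO.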

[2] = read-out: growth arrest and DNA damage 45 (GADD45G), GADD45G (gene 10912); assay: LTEA_HepaRG_GADD45G: Life Technologies and Expression Analysis (LTEA) Assay for growth arrest and DNA damage 45 (GADD45G) using HepaRG (AID 2283499); conditions: actives raise or lower the signal; mRNA level, 48 h
In short: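 Gain or loss of GADD45G mRNA, quantified by TaqMan qRT-PCR against three housekeeping genes, is fitted in both directions relative to 0.5% DMSO. Human HepaRG cultures receive test chemical for 48 h at up to 100 uM.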

[3] = read-out: Insulin-like growth factor-binding protein 1 (IGFBP1), IGFBP1 (gene 3484); assay: LTEA_HepaRG_IGFBP1: Life Technologies and Expression Analysis (LTEA) Assay for Insulin-like growth factor-binding protein 1 (IGFBP1) using HepaRG (AID 2283508); conditions: actives raise or lower the signal; mRNA level, 48 h
In short: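 Thawed HepaRG cells are plated for 48 h, switched to serum-free induction medium, then dosed in duplicate for another 48 h (100 uM top, half-log steps). Lysates in RLT go to qRT-PCR, and gain or loss of signal is fitted relative to vehicle.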

[4] = read-out: Interleukin 6 (IL6), IL6 (gene 3569); assay: LTEA_HepaRG_IL6: Life Technologies and Expression Analysis (LTEA) Assay for Interleukin 6 (IL6) using HepaRG (AID 2283509); conditions: actives raise or lower the signal; mRNA level, 48 h
In short: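 Differentiated human HepaRG cells, plated 48 h then switched to serum-free induction medium, were exposed in duplicate for 48 h to eight half-log concentrations up to 100 uM in 0.5% DMSO. IL6 mRNA measured by qRT-PCR, normalized to ACTB/GAPDH/POLR2A.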

[5] = read-out: Interleukin 6 Receptor (IL6R), IL6R (gene 3570); assay: LTEA_HepaRG_IL6R: Life Technologies and Expression Analysis (LTEA) Assay for Interleukin 6 Receptor (IL6R) using HepaRG (AID 2283510); conditions: actives raise or lower the signal; mRNA level, 48 h;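 note: TaqMan qRT-PCR signal normalized to ACTB GAPDH and POLR2A housekeeping genes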
In short: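 Differentiated human HepaRG cells, plated 48 h then switched to serum-free induction medium, were dosed in duplicate for 48 h at eight half-log concentrations up to 100 uM in 0.5% DMSO. IL6R mRNA quantified by qRT-PCR, normalized to ACTB/GAPDH/POLR2A; bidirectional fit versus DMSO.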

[6] = read-out: matrix metalloproteinase-10 (MMP10), MMP10 (gene 4319); assay: LTEA_HepaRG_MMP10: Life Technologies and Expression Analysis (LTEA) Assay for matrix metalloproteinase-10 (MMP10) using HepaRG (AID 2283517); conditions: actives raise or lower the signal; mRNA level, 48 h
In short: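 HepaRG, collagen I, ~100,000 cells/well; serum-free induction medium; 48 h exposure, duplicate, 8-pt half-log to 100 uM, 0.5% DMSO. Readout: TaqMan qRT-PCR, normalized to ACTB/GAPDH/POLR2A; bidirectional fit vs DMSO.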

[7] = read-out: Nuclear factor NF-kappa-B p105 subunit (Homo sapiens) (UniProt P19838); assay: LTEA_HepaRG_NFKB1: Life Technologies and Expression Analysis (LTEA) Assay for Nuclear Factor Kappa B Subunit 1 (NFKB1) using HepaRG (AID 2283521); conditions: actives raise or lower the signal; mRNA level, 48 h
In short: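 HepaRG, 48 h exposure; 8-pt half-log series from 100 uM in 0.5% DMSO; duplicates. Readout: NFKB1 mRNA by qRT-PCR (Fluidigm arrays), housekeeping-normalized. Gain/loss fit vs DMSO baseline.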

[8] = read-out: Protein phosphatase 2A (PPP2R4), PTPA (gene 5524); assay: LTEA_HepaRG_PPP2R4: Life Technologies and Expression Analysis (LTEA) Assay for Protein phosphatase 2A (PPP2R4) using HepaRG (AID 2283522); conditions: actives raise or lower the signal; mRNA level, 48 h
In short: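 Differentiated HepaRG cells in serum-free induction medium were exposed in duplicate for 48 h to eight concentrations, top 100 uM with half-log dilutions, in 0.5% DMSO. PPP2R4 mRNA was quantified by TaqMan qRT-PCR, normalized to ACTB, GAPDH and POLR2A.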

[9] = read-out: Phosphatase and tensin (PTEN), PTEN (gene 5728); assay: LTEA_HepaRG_PTEN: Life Technologies and Expression Analysis (LTEA) Assay for Phosphatase and tensin (PTEN) using HepaRG (AID 2283523); conditions: actives raise or lower the signal; mRNA level, 48 h
In short: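 Differentiated human HepaRG cells, plated 48 h then switched to serum-free induction medium, were exposed in duplicate for 48 h to eight half-log concentrations up to 100 uM in 0.5% DMSO. PTEN mRNA measured by TaqMan qRT-PCR, normalized to ACTB/GAPDH/POLR2A, bidirectional fit versus DMSO.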

[10] = read-out: NAD(P)H dehydrogenase [quinone] 1 (NQO1), NQO1 (gene 1728); assay: LTEA_HepaRG_NQO1: Life Technologies and Expression Analysis (LTEA) Assay for NAD(P)H dehydrogenase [quinone] 1 (NQO1) using HepaRG (AID 2283526); conditions: actives raise or lower the signal; mRNA level, 48 h
In short: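 Differentiated HepaRG cells, plated 48 h and then switched to serum-free induction medium, were exposed in duplicate for 48 h to 8-point half-log concentrations up to 100 uM in 0.5% DMSO. mRNA measured by qRT-PCR, normalized to ACTB, GAPDH, POLR2A; bidirectional fit versus DMSO.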

[11] = read-out: Nuclear factor erythroid 2-related factor 2 (Homo sapiens) (UniProt Q16236); assay: LTEA_HepaRG_NFE2L2: Life Technologies and Expression Analysis (LTEA) Assay for Nuclear factor erythroid 2-related factor 2 (NFE2L2) Transcription Factor using HepaRG (AID 2283527); conditions: actives raise or lower the signal; mRNA level, 48 h
In short: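 Differentiated human HepaRG cells in serum-free induction medium were exposed for 48 h to eight concentrations (top 100 uM, half-log dilutions, 0.5% DMSO), in duplicate. NFE2L2 mRNA was quantified by TaqMan qRT-PCR, normalized to ACTB, GAPDH and POLR2A, with bidirectional fitting versus DMSO.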

[12] = read-out: UDP glucuronosyltransferase (UGT1A6), UGT1A6 (gene 54578); assay: LTEA_HepaRG_UGT1A6: Life Technologies and Expression Analysis (LTEA) Assay for UDP glucuronosyltransferase (UGT1A6) using HepaRG (AID 2283539); conditions: actives raise or lower the signal; mRNA level, 48 h
In short: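 HepaRG, 48 h post-plating switch to serum-free induction medium; chemical 48 h, 100 uM top, half-log x8, duplicate, 0.5% DMSO. Phenobarbital 1mM induction control. UGT1A6 mRNA by TaqMan qRT-PCR; gain/loss fit vs DMSO.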

[13] = read-out: X-box binding protein 1 (XBP1), XBP1 (gene 7494); assay: LTEA_HepaRG_XBP1: Life Technologies and Expression Analysis (LTEA) Assay for X-box binding protein 1 (XBP1) using HepaRG (AID 2283540); conditions: actives raise or lower the signal; mRNA level, 48 h
In short: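 Transcript levels of XBP1, measured by qRT-PCR and normalised to three housekeeping genes, were fitted bidirectionally relative to 0.5% DMSO controls. Human HepaRG cells received eight-point half-log dilutions from 100 uM for 48 h.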

[14] = LTEA_HepaRG_LDH_cytotoxicity: Cytotoxicity Assessment in the Life Technologies and Expression Analysis (LTEA) Assay (AID 2283563; active = hit-call score of the fitted dose curve at least 0.9, where 1 is the maximum;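 note: LDH activity released into spent culture medium as a marker of cell death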)
In short: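 Cells were thawed and plated for 48 h. Medium was then replaced with serum-free induction medium. Chemicals (8 half-log points, maximum 100 uM, 0.5% DMSO) were added in duplicate for 48 h, after which spent medium was assayed for LDH.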

Measured: AC50

Cc1cc([N+](=O)[O-])cc([N+](=O)[O-])c1O
active: [1] 12.9 µM | CYP2E1 (gene 1571) 6.09 µM | [2] 32.2 µM | [3] 61.7 µM | [4] 17.6 µM | [5] 12.2 µM | [6] 17.9 µM | [7] 11.9 µM | [8] 12.4 µM | [9] 12.6 µM | [10] 6.51 µM | [11] 11.9 µM | [12] 12.8 µM | [13] 12.4 µM | [14] 29.6 µM
